Data published in patent publication US11471508B2, “HMGB1 antagonist treatment of diabetic peripheral neuropathy” (THE FEINSTEIN INSTITUTES FOR MEDICAL RESEARCH, priority 2019, dated 2022).

Legend:
[1] = Degradation in rat plasma and whole blood
[2] = In vitro stability in mouse serum (HPLC); details: 100 μg

SMILES: NC(=O)[C@H](CCC(=O)O)NC(=O)[C@H](CO)NC(=O)[C@H](CO)NC(=O)[C@@H](N)Cc1ccccc1 [P5779]
- half-life for degradation ([1]; rat plasma): 12 min
- half-life for degradation ([1]; rat whole blood): 13 min
- in-vitro half-life [2]: 60 min
